This is a selection; strong and weak results do not stand in their true shares. Active and inactive are the calls of the source.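 The calls were made as follows: active = percent response vs DMSO below 50%; inconclusive = fewer than 70 events counted for the yeast strain; inactive = the rest.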
Assay: RPL19A-GFP expression modulators in yeast, primary screen, cell-based, S. cerevisiae, multiplex flow cytometry, MLPCN (AID 2025);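 also: median channel GFP fluorescence of the barcoded RPL19A-GFP strain; ratio of sample median GFP to plate DMSO average so 100% = DMSO; lower means less RPL19A-GFP as with rapamycin TOR inhibition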
Details: S. cerevisiae RPL19A-GFP strain, 3 h, at 10 µM, stronger effect = lower value
In the case of CCC(=O)N(c1ccccc1)C1(COC)CCN(CCn2nnn(CC)c2=O)CC1, the percent response vs DMSO is reported as inactive: 97.5%. In the case of CCC(=O)N(c1ccccc1)C1(COC)CCN(CCc2cccs2)CC1, the percent response vs DMSO is reported as inactive: 103%.

From PubChem BioAssay AID2025 (NMMLSC, 2009)
